Measurements from patent publication US7691907B2, “Methods and composition based on discovery of metabolism of nitroglycerin” (priority 2002, dated 2010).
Only a part of the results on these compounds is given; other tests are left out.

Test system: rabbit thoracic aorta rings
Assay: Rabbit aortic ring vasorelaxation assay
Assay type: cell-based, New Zealand white rabbits

Substance: sodium nitroprusside
- effect of GTN tolerance on SNP-induced relaxations (GTN tolerant rings compared to control): no effect
- effect of preincubation with the mtALDH inhibitors on relaxation induced by this vasodilator (preincubation with mtALDH inhibitors): did not attenuate relaxation
